Data reported in PubChem BioAssay (Tox21).
Where “and” joins values, the source holds several entries; their conditions need not be identical. Equal values may be shown once. The entries are a selection whose mix differs from that of the whole data set. Inconclusive results are not listed. Calls of active or inactive are those of the source. Unless noted, calls follow the shape of the dose curve; as a rule, active = well fitted curve in the direction sought with a large enough effect in the repeat runs; inconclusive = weak or mixed curves; inactive = no such curve, though single readings can be large; an effect the other way counts as inactive or inconclusive.

Amino acid sequences for entries named in this document (tags omitted).
UniProt P04150, whole entry: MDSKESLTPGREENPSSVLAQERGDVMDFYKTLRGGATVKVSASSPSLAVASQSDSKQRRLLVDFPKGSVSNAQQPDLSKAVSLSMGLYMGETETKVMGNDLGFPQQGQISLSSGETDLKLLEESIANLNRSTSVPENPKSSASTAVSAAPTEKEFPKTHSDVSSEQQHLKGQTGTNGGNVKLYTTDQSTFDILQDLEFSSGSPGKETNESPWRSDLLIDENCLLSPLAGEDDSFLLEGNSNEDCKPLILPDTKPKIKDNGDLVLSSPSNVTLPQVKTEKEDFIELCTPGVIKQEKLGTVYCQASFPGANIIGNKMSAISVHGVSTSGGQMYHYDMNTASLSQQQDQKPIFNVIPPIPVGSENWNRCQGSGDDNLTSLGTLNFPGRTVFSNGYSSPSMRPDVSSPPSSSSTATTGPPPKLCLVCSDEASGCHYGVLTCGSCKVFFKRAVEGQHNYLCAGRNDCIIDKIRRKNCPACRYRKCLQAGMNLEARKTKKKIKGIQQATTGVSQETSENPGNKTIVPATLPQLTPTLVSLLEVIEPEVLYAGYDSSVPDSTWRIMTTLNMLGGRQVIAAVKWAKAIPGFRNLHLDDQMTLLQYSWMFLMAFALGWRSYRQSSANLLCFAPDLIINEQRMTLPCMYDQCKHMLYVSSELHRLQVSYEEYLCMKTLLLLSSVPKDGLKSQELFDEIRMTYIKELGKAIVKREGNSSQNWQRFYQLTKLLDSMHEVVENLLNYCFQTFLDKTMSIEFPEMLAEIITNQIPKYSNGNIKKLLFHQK

Key:
[1] = qHTS assay for small molecule agonists of the p53 signaling pathway (AID 651631; calls by dose curve; also: nearly all actives have a fitted effect of over 15% in size); conditions: HCT-116 p53RE-bla reporter, beta-lactamase FRET ratio, 16 h; at 73.3 µM (top of the series)
Summary of the method: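 Testing took place in human colorectal HCT-116 cells with stable p53RE-driven beta-lactamase. After 16 h of compound exposure at 37 °C, a FRET substrate was added and fluorescence recorded 2 h later.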

[2] = qHTS assay for small molecules that induce genotoxicity in human embryonic kidney cells expressing luciferase-tagged ATAD5 (AID 651632); conditions: HEK293T ATAD5-luciferase induction, 16 h; series mostly up to 83.3 µM; also: nearly all actives have a fitted effect of over 15% in size
Summary of the method: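 HEK293T cells carrying a luciferase reporter tagged to ATAD5 were exposed to compound or DMSO vehicle for 16 hr at 37C, 5% CO2. Amplite was added, and after 30 min at room temperature luciferase activity was read as a marker of ATAD5 induction.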

[3] = qHTS assay for small molecule agonists of the p53 signaling pathway - cell viability (AID 651633; calls by dose curve; also: nearly all actives have a fitted effect of over 30% in size); conditions: p53RE-bla HCT-116 viability, ATP luminescence, 16 h; at 83.3 µM (top of the series)
Summary of the method: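 Viability counter-read: CellTiter-Glo luminescence (30 min, room temperature) in the same p53RE-bla plates. These plates had been exposed to compounds for 16 h at 37 C.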

[4] = qHTS assay for small molecules that induce genotoxicity in human embryonic kidney cells expressing luciferase-tagged ATAD5 - cell viability (AID 651634; calls by dose curve; also: nearly all actives have a fitted effect of over 25% in size); conditions: HEK293T ATAD5-luc cells viability, CellTiter-Fluor, 15.5 h
Summary of the method: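 HEK293T cells expressing luciferase-tagged ATAD5 were exposed to compound or DMSO for 15.5 hr at 37C, 5% CO2. Viability was then read as live-cell protease activity by CellTiter-Fluor fluorescence after 30 min at 37C.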

[5] = qHTS assay for small molecule disruptors of the mitochondrial membrane potential - cell viability (AID 720634; calls by dose curve;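 also: human HepG2 liver cancer cells; nearly all actives have a fitted effect of over 20% in size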); conditions: HepG2 viability, ATP luminescence (CellTiter-Glo), 1 h
Summary of the method: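 HepG2 cells seeded overnight at 37 C, then exposed to compound or DMSO for 1 hr at 37 C, 5% CO2. m-MPI dye added, then CellTiter-Glo for 30 min at room temperature; viability read as ATP luminescence.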

[6] = qHTS assay to test for compound auto fluorescence at 590 nm (red) in HepG2 cells (AID 720674); conditions: HepG2 autofluorescence, red 540/590 nm, 1 h
Summary of the method: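 We screened compounds on adherent HepG2 cells, incubating them for an hour at 37 C in 5% CO2 before reading emission at 590 nm under 540 nm excitation; values reflect equivalence to Rose Bengal sodium fluorescence.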

[7] = qHTS assay to test for compound auto fluorescence at 535 nm (green) in HepG2 cells (AID 720675); conditions: green autofluorescence 485/535 nm, 1 h
[8] = qHTS assay to test for compound auto fluorescence at 460 nm (blue) in HEK293 cells (AID 720678); conditions: blue autofluorescence 405/460 nm
Summary of the method: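 Cells were seeded and left to adhere for 4-5 hr at 37C. Compounds were then pin-transferred. After an overnight incubation at 37C under 5% CO2, intrinsic fluorescence at 405/460 nm was measured and referenced to triamterene.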

[9] = qHTS assay to test for compound auto fluorescence at 590 nm (red) in HEK293 cells (AID 720679); conditions: red autofluorescence 540/590 nm
Summary of the method: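 Each well held 2,000 HEK293 cells in medium containing 10% dialyzed FBS. Following 4-5 hr attachment at 37C, 23 nL test compound or DMSO was added; plates sat overnight, and red fluorescence (540/590nm) was recorded.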

[10] = qHTS assay to test for compound auto fluorescence at 535 nm (green) in HEK293 cells (AID 720680); conditions: green autofluorescence 485/535 nm
[11] = qHTS assay to test for compound auto fluorescence at 460 nm (blue) in HEK293 cell free culture (AID 720681); conditions: cell-free medium, autofluorescence 405/460 nm (blue)
Summary of the method: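 Blue fluorescence (Ex 405/Em 460 nm, triamterene-equivalent) was read immediately after pin transfer of compound or DMSO into medium (DMEM, 10% FBS) without cells.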

[12] = qHTS assay to test for compound auto fluorescence at 535 nm (green) in HEK293 cell free culture (AID 720682); conditions: cell-free medium, green autofluorescence 485/535 nm, active compounds read high
Summary of the method: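 DMEM + 10% FBS, cell-free; cpd or DMSO pinned in; Ex485/Em535 read; output as fluorescein-equivalent signal.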

[13] = qHTS assay to test for compound auto fluorescence at 590 nm (red) in HEK293 cell free culture (AID 720683); conditions: cell-free medium autofluorescence, Ex540/Em590 red
Summary of the method: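 Red-channel autofluorescence of compounds in culture medium (DMEM, 10% FBS), no cells, measured at 540/590 nm. Rose Bengal sodium is the reference fluorophore for equivalence.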

[14] = qHTS assay to test for compound auto fluorescence at 590 nm (red) in HepG2 cell free culture (AID 720684); conditions: cell-free medium autofluorescence, red 540/590 nm
Summary of the method: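 Plate contents were MEM with 10% FBS plus test compound or DMSO, no cells. Fluorescence was recorded with 540 nm excitation and 590 nm emission.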

[15] = qHTS assay to test for compound auto fluorescence at 460 nm (blue) in HepG2 cell free culture (AID 720685); conditions: Cell-free culture medium, blue autofluorescence 405/460 nm
Summary of the method: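 Compound (23 nL) or DMSO pinned into cell-free MEM with 10% FBS; blue fluorescence read at 405/460 nm excitation/emission, expressed as auto-fluorescence equivalency to triamterene.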

[16] = qHTS assay to test for compound auto fluorescence at 535 nm (green) in HepG2 cell free culture (AID 720686); conditions: Cell-free medium, green autofluorescence 485/535 nm
[17] = qHTS assay to test for compound auto fluorescence at 460 nm (blue) in HepG2 cells (AID 720687); conditions: autofluorescence 405/460 nm, 1 h
Summary of the method: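 Blue-channel autofluorescence (Ex/Em 405/460 nm, triamterene-equivalent) was measured after 1 hr compound exposure at 37 C, 5% CO2. Cells were HepG2, plated overnight at 37 C in MEM plus 10% FBS.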

[18] = molecular target: Glucocorticoid receptor (Homo sapiens) (UniProt P04150); assay: qHTS assay to identify small molecule agonists of the glucocorticoid receptor (GR) signaling pathway (AID 720691; active = well fitted activation curve with a large enough effect in the signal ratio in the repeat runs, not every such curve was filed as active; the % refers to the signal ratio); conditions: GR-bla HeLa, beta-lactamase reporter ratio, 18 h; at 62.4 µM (top of the series)
[19] = molecular target: Glucocorticoid receptor (Homo sapiens) (UniProt P04150); assay: qHTS assay to identify small molecule antagonists of the glucocorticoid receptor (GR) signaling pathway (AID 720692; active = well fitted inhibition curve with a large enough effect in the signal ratio in the repeat runs, not every such curve was filed as active; the % refers to the signal ratio); conditions: GR-bla HeLa, beta-lactamase FRET ratio, dexamethasone-stimulated, 18 h; at 58.5 µM (top of the series)
[20] = qHTS assay for identifying genotoxic compounds that show differential cytotoxicity against isogenic chicken DT40 cell lines with known DNA damage response pathways - wild type cell line (AID 743012); conditions: DT40 wild type chicken cells viability, CellTiter-Glo, 40 h; also: nearly all actives have a fitted effect of over 60% in size
Summary of the method: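 Parental DNA repair-proficient DT40 cells, 300 per well, were pre-incubated ~0.5 h at 37 C/5% CO2, pin-dosed with compounds in DMSO, then incubated 40 h. Viability was read as CellTiter-Glo luminescence after 30 min at room temperature.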
% is scaled to controls: 0 for no effect and ±100 for the full control effect.

CC(C)OP(C)(=O)OC(C)C
inactive: activation [1] -0.98% and -8.17% | Potency [2] | activity change, negative = cytotoxicity [3] 11% and 8.52% | activity, negative = cytotoxicity ([4]; at 83.3 µM (top of the series)) 13.8% and 11.2% | activity change, negative = cytotoxicity ([5]; at 83.2 µM (top of the series)) 4.61% and 10.8% | fluorescence, relative to Rose Bengal ([6]; at 91.3 µM (top of the series)) -0.2% and -0.0996% | fluorescence, % of fluorescein control ([7]; at 91.3 µM (top of the series)) 0.0412% and -0.003% | fluorescence, % of triamterene ([8]; at 91.3 µM (top of the series)) 0.0048% and -0.14% | fluorescence, % of fluorescent control ([9]; at 91.3 µM (top of the series)) -0.136% and -0.0796% | fluorescence, % of fluorescein ([10]; at 91.3 µM (top of the series)) -0.0774% and -0.0198% | fluorescence, % of fluorescent control ([11]; at 91.3 µM (top of the series)) -0.185% and -0.168% | activity change ([12]; at 91.3 µM (top of the series)) 0.0093% and -0.0208% | fluorescence, % of fluorescent control ([13]; at 91.3 µM (top of the series)) -0.147% and -0.0693% | fluorescence, % of Rose Bengal ([14]; at 91.3 µM (top of the series)) 0.341% and 0.157% | fluorescence, % of fluorescent control ([15]; at 91.3 µM (top of the series)) -0.0587% and -0.0378% | fluorescence, % of fluorescein control ([16]; at 91.3 µM (top of the series)) -0.107% and -0.0484% | fluorescence, % of fluorescent control ([17]; at 91.3 µM (top of the series)) -0.166% and -0.221% | activation [18] -1.58% and -0.799% | activity change, negative = inhibition [19] 3.23% and 4.17% | activity change, negative = cytotoxicity ([20]; at 68.4 µM (top of the series)) -0.72%

[NH4+].[O-][Cl+3]([O-])([O-])[O-]
inactive: Potency [2] | activity, negative = cytotoxicity ([4]; at 83.3 µM (top of the series)) 11.4% | activity, negative = cytotoxicity ([4]; at 95.3 µM (top of the series)) -17% | activity change, negative = cytotoxicity ([5]; at 83.2 µM (top of the series)) -1.25% | activity change, negative = cytotoxicity ([5]; at 95.3 µM (top of the series)) 16.2% | fluorescence, relative to Rose Bengal ([6]; at 91.3 µM (top of the series)) -0.0472% | fluorescence, relative to Rose Bengal ([6]; at 95.7 µM (top of the series)) 0.0554% | fluorescence, % of fluorescein control ([7]; at 91.3 µM (top of the series)) 0.0362% | fluorescence, % of fluorescein control ([7]; at 95.7 µM (top of the series)) 0.0758% | fluorescence, % of triamterene ([8]; at 91.3 µM (top of the series)) 0.102% | fluorescence, % of triamterene ([8]; at 95.7 µM (top of the series)) -0.0429% | fluorescence, % of fluorescent control ([9]; at 91.3 µM (top of the series)) 0.34% | fluorescence, % of fluorescent control ([9]; at 95.7 µM (top of the series)) -0.29% | fluorescence, % of fluorescein ([10]; at 91.3 µM (top of the series)) -0.0309% | fluorescence, % of fluorescein ([10]; at 95.7 µM (top of the series)) 0.03% | fluorescence, % of fluorescent control ([11]; at 91.3 µM (top of the series)) -0.0885% | fluorescence, % of fluorescent control ([11]; at 95.7 µM (top of the series)) 0.253% | activity change ([12]; at 91.3 µM (top of the series)) -0.0178% | activity change ([12]; at 95.7 µM (top of the series)) -0.0396% | fluorescence, % of fluorescent control ([13]; at 91.3 µM (top of the series)) -0.0111% | fluorescence, % of fluorescent control ([13]; at 95.7 µM (top of the series)) 0.0326% | fluorescence, % of Rose Bengal ([14]; at 91.3 µM (top of the series)) 0.0799% | fluorescence, % of Rose Bengal ([14]; at 95.7 µM (top of the series)) -0.0828% | fluorescence, % of fluorescent control ([15]; at 91.3 µM (top of the series)) 0.005% | fluorescence, % of fluorescent control ([15]; at 95.7 µM (top of the series)) -0.173% | fluorescence, % of fluorescein control ([16]; at 91.3 µM (top of the series)) -0.0085% | fluorescence, % of fluorescein control ([16]; at 95.7 µM (top of the series)) -0.0113% | fluorescence, % of fluorescent control ([17]; at 91.3 µM (top of the series)) 0.0195% | fluorescence, % of fluorescent control ([17]; at 95.7 µM (top of the series)) -0.0934% | activity change, negative = cytotoxicity ([20]; at 68.4 µM (top of the series)) 7.86% | activity change, negative = cytotoxicity ([20]; at 95 µM (top of the series)) 13.9%

CCOP(=O)(CC)OCC
inactive: activation [1] 2.4% | Potency [2] | activity change, negative = cytotoxicity [3] -12.9% | activity, negative = cytotoxicity ([4]; at 83.3 µM (top of the series)) 11.9% | activity change, negative = cytotoxicity ([5]; at 83.2 µM (top of the series)) 2.06% | fluorescence, relative to Rose Bengal ([6]; at 91.3 µM (top of the series)) 0.0813% | fluorescence, % of fluorescein control ([7]; at 91.3 µM (top of the series)) 0.0455% | fluorescence, % of triamterene ([8]; at 91.3 µM (top of the series)) 0.007% | fluorescence, % of fluorescent control ([9]; at 91.3 µM (top of the series)) 0.454% | fluorescence, % of fluorescein ([10]; at 91.3 µM (top of the series)) 0.193% | fluorescence, % of fluorescent control ([11]; at 91.3 µM (top of the series)) 0.0195% | activity change ([12]; at 91.3 µM (top of the series)) 0.116% | fluorescence, % of fluorescent control ([13]; at 91.3 µM (top of the series)) -0.456% | fluorescence, % of Rose Bengal ([14]; at 91.3 µM (top of the series)) -0.144% | fluorescence, % of fluorescent control ([15]; at 91.3 µM (top of the series)) -0.0053% | fluorescence, % of fluorescein control ([16]; at 91.3 µM (top of the series)) -0.0184% | fluorescence, % of fluorescent control ([17]; at 91.3 µM (top of the series)) 0.121% | activation [18] 0.943% | activity change, negative = inhibition [19] 6.36% | activity change, negative = cytotoxicity ([20]; at 68.4 µM (top of the series)) -0.962%
